The source made the active and inactive calls. The rule behind the calls is not given here.
How the values were obtained:
[1] = system: Mus musculus; assay: Antifibrotic activity against intranasal bleomycin-induced C57BL/6N mouse pulmonary fibrosis model assessed as reduction in Ashcroft score at 60 mg/kg, po qd administered for 15 days starting from 7 days post induction; assay type: functional, organism-based; settings: time 15.0 day
[2] = system: Mus musculus; assay: Antifibrotic activity against Hypo fractionated palliative 17 Gy radiotherapy-induced C57BL/6J mouse lung fibrosis model assessed as reduction in collagen deposition at 60 mg/kg, po qd administered for 25 days starting from 16 weeks post irradiation by hematoxylin and eosin staining based assay; assay type: functional, organism-based; settings: time 25.0 day

Question: Which results are given for `COC(=O)c1ccc2c(c1)NC(=O)/C2=C(\Nc1ccc(N(C)C(=O)CN2CCN(C)CC2)cc1)c1ccccc1`?
Answer: Activity [1]: Active; Activity [2]: Active

From ChEMBL document CHEMBL5046225, “Discovery and Optimization of Orally Bioavailable Phthalazone and Cinnolone Carboxylic Acid Derivatives as S1P2 Antagonists against Fibrotic Diseases” (J Med Chem, 2021)
